{"source": "patent US8003083B2", "about": "“Benzylidene malonamide and salt thereof, ultraviolet ray absorbent, and agent for external application to the skin” (Shiseido Company, Ltd., priority 2006, dated 2011)", "assay": "Photostability test, sunlight exposure", "type": "physicochemical", "details": "solution exposed to sunlight for two weeks, 80 MJ/m^2", "method": "A solution of the ultraviolet absorbent of the present invention was exposed to sunlight for two weeks (sunlight exposure level 80 MJ/m^2) and then the residual ratio and changes in the appearance were investigated and the ultraviolet absorption spectrum was measured (solvent: water, concentration 10 ppm, optical path length 1 cm) by using a spectrophotometer; the ultraviolet absorption spectrum was integrated over a range of 290-400 nm to obtain the area value, which was compared with the value before the sunlight exposure.\nChanges in the residual ratio and the area value of the ultraviolet absorption spectrum were evaluated based on the following criteria.\nΔ: 70% or more and less than 90% of the value before the sunlight exposure.\nX: Less than 70% of the value before the sunlight exposure.", "data": [{"smiles": "COc1cc(O)c(C(=O)c2ccccc2)cc1S(=O)(=O)[O-].[Na+]", "note": "[sodium 2-hydroxy-4-methoxy-5-sulfoxonium benzophenone, reference compound]", "values": [{"measurement": "Residual ratio", "result": "◯ (90% or more and less than 95% of the value before the sunlight exposure.)"}]}]}
